Source: PubChem (National Center for Advancing Translational Sciences (NCATS))
TrxR1 substrate: substrates of rat thioredoxin reductase 1; Potency, µM (series often up to 114 µM); hit rate 0.01% among 390,000; purified TrxR1 substrate turnover, NADPH consumption readout; further: nearly all actives have a fitted effect of over 50% in size
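Rat TrxR1, dispensed at 90 nM, was prereduced with 400 uM NADPH (final) for 5 min at ~22 deg C, then incubated with compound 15 min before 400 uM selenite. A first-read NADPH fluorescence drop versus no-compound background flagged substrates.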
miR-21 reporter: miR-21 reporter, rising signal; HeLa miR-21 FLuc reporter, luciferase, 48 h; Potency, µM (titrated, usually from 38.3 µM); AID 2288; 340,000 tested, under 10 active; active = well fitted rising curve with a large enough effect; inconclusive = small, poorly fitted or top-dose-only effect; inactive = no such curve, though single readings can be large or run the other way;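 further: miR-21 action dims this reporter so a rising signal means less miR-21 action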
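HeLa cells endogenously expressing miR-21, stably carrying CMV-driven firefly luciferase with a downstream miR-21 binding site, 2000 cells/well. Titrations up to approximately 40 uM, 48 hours; luciferase luminescence read.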
Apoferritin bind: binds horse apoferritin like a general anesthetic | Potency, µM (series often up to 77.5 µM), most hits filed as inhibitors | apoferritin/1-aminoanthracene competitive binding, fluorescence | P02791 | hit rate 0.074% among 350,000; further: nearly all actives have a fitted effect of over 20% in size
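Apoferritin-based anesthetic binding model; compound displacement of fluorescent 1-AMA measured as endpoint fluorescence after 10 minutes at room temperature, scaled to free-ligand and complex controls.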
rTrxR1 inhibitor: rat TrxR1 inhibition | O89049 | recombinant rTrxR1, NADPH fluorescence consumption, selenite substrate | Potency, µM (top dose mostly 114 µM), usual class: inhibitors | hit rate 1% among 390,000; further: nearly all actives have a fitted effect of over 65% in size
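Rat TrxR1 (90 nM in the dispensed reagent) was pre-reduced with 400 uM NADPH for 5 min at room temperature, then incubated with compound for 15 min. After 400 uM selenite was added, NADPH fluorescence (Ex 340/Em 450 nm) was followed for 8 min.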
ClpP mod: qHTS Assay for Activators of ClpP; Potency, µM (highest dose often 57.5 µM); hit rate 1.9% among 340,000; ATP-dependent Clp protease proteolytic subunit (Bacillus subtilis (strain 168)), P80244; purified B. subtilis ClpP, FRET peptide cleavage, 20 min; active means well fitted falling curve with a large enough effect; inconclusive means small, poorly fitted or top-dose-only effect; inactive means no such curve, though single readings can be large or run the other way; further: the source files actives as falling curves though it sought activators and does not explain the sign; nearly all actives have a fitted effect of over 65% in size
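Buffer: 100 mM Tris/HCl pH8, 100 mM KCl, 0.05% low protease BSA, 2.5% glycerol, 0.01% Tween-20. ClpP 10 microg/mL final; 20 min RT; delta FRET normalized to ADEP and DMSO controls.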
Numbers stand for hits; 0 = inactive; ? = inconclusive; - = no result given; ! = not active in a repeat. This is a sample that favours compounds with a hit; in the whole collection about 2.5% have one here. Unless noted, the call rests on the fitted dose curve; in most records, active means well fitted curve in the direction sought with a large enough effect; inconclusive means small, poorly fitted or top-dose-only effect, or another doubt; inactive means no such curve, though single readings can be large; an effect the other way counts as inactive or inconclusive.

SMILES	TrxR1 substrate	miR-21 reporter	Apoferritin bind	rTrxR1 inhibitor	ClpP mod
Cc1noc(Cn2c(=O)c3cc4c(cc3n(CC(=O)Nc3ccccc3F)c2=O)OCO4)n1	0	0	0	0	0
COCCn1ccc2c(OCC(=O)NCc3ccc(C)cc3)cccc2c1=O	0	-	-	0	28µM
COCCn1ccc2c(OCC(=O)NCc3ccccc3)cccc2c1=O	0	-	-	0	0
COc1ccc(C2=CC3=C(Br)C(=O)C(C)(OC(=O)c4cccs4)C(=O)C3=CO2)cc1 (stereo not drawn)	0	-	-	50µM	0
COC(=O)CCC(=O)OC1(C)C(=O)C2=CN(c3ccc(OC)cc3)C(c3ccc(OC)cc3)=CC2=C(Br)C1=O (stereo not drawn)	0	-	-	0	0
COc1ccc(C2=CC3=C(Br)C(=O)C(C)(OC(=O)c4ccco4)C(=O)C3=CO2)cc1 (stereo not drawn)	0	0	0	50µM	0
COCCN1C=C2C(=O)C(C)(OC(=O)CCC(=O)OC)C(=O)C(Br)=C2C=C1c1ccc(OC)cc1 (stereo not drawn)	?	-	-	0	0
CC1(C)Cc2nc3oc4c(N(CCO)Cc5ccccc5)ncnc4c3cc2CO1	0	0	0	0	14µM
COCCSc1ncnc2c1oc1nc3c(cc12)COC(C)(C)C3	0	0	0	0	0
CCCCSc1nnc2n(-c3cccc(C)c3)c(=O)c3c4c(sc3n12)CCCC4	0	0	0	0	0
CCOC(=O)CCCc1sc(N)nc1-c1[nH]c(=O)[nH]c1C	0	0	0	7.9µM	0
CCOC(=O)CCc1c(C)n[nH]c1C	0	0	0	0	-
CC(C)(C)n1ncc2c(=O)n(Cc3ccc(F)c(C(F)(F)F)c3)cnc21	0	-	-	0	-
Cc1ccc(C)n1-c1ccc(C(=O)NCc2ccncc2)cc1	0	0	0	45µM	0
COc1ccc(-c2nnc(SCC(=O)Nc3cc(OC)ccc3OC)nc2-c2ccc(OC)cc2)cc1	0	0	0	0	?
COc1ccc(CNc2nc3nc(C)c(Cl)c(C)n3n2)cc1	0	0	0	0	-
COc1cccc(CNc2nc3nc(C)c(Cl)c(C)n3n2)c1	0	0	0	0	32µM
Cc1nc2nc(NCc3cccs3)nn2c(C)c1Cl	0	0	?	0	13µM
Cc1nc2nc(COc3ccccc3)nn2c(C)c1Cl	0	0	?	0	14µM
CCCCc1nc2ccccc2n1CC(=O)N(COCC)c1c(C)cccc1CC	0	?	0	0	0
Cc1ccc(S(=O)(=O)c2nc(S(C)(=O)=O)sc2N2CCC(C)CC2)cc1	0	0	0	13µM	0
Cc1ccc(S(=O)(=O)c2nc(S(C)(=O)=O)sc2N2CCCCCC2)cc1	0	0	0	0	0
NC(=O)CSc1nnc(-c2cccs2)n1Cc1ccco1	0	0	0	?	0
O=C(CSc1nnc(-c2ccc(Cl)cc2)n1Cc1ccco1)c1cccs1	0	0	0	35µM	0
O=C(CSc1n[nH]c(=O)n1Cc1ccco1)c1ccc2c(c1)OCCO2	0	0	0	0	0
SMILES	TrxR1 substrate	miR-21 reporter	Apoferritin bind	rTrxR1 inhibitor	ClpP mod
O=C(CSc1nnc(Cc2cccs2)n1Cc1ccco1)Nc1cccc(Cl)c1	0	0	0	25µM	0
COc1ccc(C(=O)CSc2nnc(-c3cccnc3)n2Cc2ccco2)cc1	0	0	0	50µM	0
N#Cc1ccc(C(=O)CSc2n[nH]c(=O)n2Cc2ccco2)cc1	0	0	0	0	28µM
O=C(CSc1nnc(-c2ccncc2)n1Cc1ccco1)Nc1ccccc1Cl	0	0	0	0	0
Clc1ccc(CSc2nnc(-c3cccnc3)n2Cc2ccco2)c(Cl)c1	0	0	0	40µM	0
O=C(CSc1nnc(-c2ccncc2)n1Cc1ccco1)c1ccc(Cl)cc1	0	0	0	32µM	0
CCC(=O)N1CCc2cc(S(=O)(=O)CCC(=O)Nc3ccc(OC(F)(F)F)cc3)ccc21	0	0	0	0	0
CCCOc1ccc(NC(=O)CC2C(=O)N(c3cccc(OC)c3)C(=O)N2CCc2ccncc2)cc1 (stereo not drawn)	0	0	0	0	0
CCCCNc1c(-c2ccc(OC)c(SC(C)CC)c2)nc2cc(C)ccn12 (stereo not drawn)	0	-	-	0	27µM!
CCCCNc1c(-c2ccc(OC)c(SC(C)CC)c2)nc2ccc(C)cn12 (stereo not drawn)	0	-	-	0	0
